# Reference: patent publication US20220332848A1 (published 2022)
# Sequences of proteins named here, by UniProt entry; tags and fusion partners are left off. Residues count along the entry.
# UniProt Q08722, 19-323: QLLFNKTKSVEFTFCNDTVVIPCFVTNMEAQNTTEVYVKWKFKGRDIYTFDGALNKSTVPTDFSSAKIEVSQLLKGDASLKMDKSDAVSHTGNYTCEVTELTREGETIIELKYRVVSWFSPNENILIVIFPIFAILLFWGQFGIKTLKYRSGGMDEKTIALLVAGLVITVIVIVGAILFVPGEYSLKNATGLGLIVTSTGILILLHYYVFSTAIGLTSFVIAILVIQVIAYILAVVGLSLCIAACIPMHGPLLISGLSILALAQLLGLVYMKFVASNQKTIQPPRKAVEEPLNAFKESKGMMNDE
# B1: bispecific antibody CTLA4-G9-LN (bispecific antibody)
# light: EVQLVESGGGLVQPGGSLRLSCAASGYTYSRHCLGWFRQAPGKGREAVSTIDSDGSTSYADSVKGRFTISRDNAKNTLYLQMNSLRPEDTAVYYCAIGPNPRYCSGAPNTRGAEHYFGYWGQGTLVTVSSGGGGSGGGSEIVLTQSPATLSLSPGERATLSCRASENVGTYISWYQQKPGQAPRLLIYGASNRYTGIPARFSGSGSGTDFTLTISSLEPEDFAVYYCGESYGHLYTFGGGTKVEIKRTVAAPSVFIFPPSDEQLKSGTASVVCLLNNFYPREAKVQWKVDNALQSGNSQESVTEQDSKDSTYSLSSTLTLSKADYEKHKVYACEVTHQGLSSPVTKSFNRGEC
# heavy: not shown
# Target: CD47 (UniProt Q08722 19-323)
# Assay: FACS
binder,measurement,value
B1,EC50,2.46 nM
